Assay [1] deals with membrane-derived caspases (Homo sapiens, UniProt P42574). Nature of the assay: Kinetics of DEVD-amc hydrolysis by membrane-derived caspases. Conditions: read-out: Km for hydrolysis of DEVD-amc by the membrane-derived caspases; substrate 1-200 μM.
Assay [2] concerns the target purified membrane derived caspase-3 (Homo sapiens, UniProt P42574). Description: DEVD-AMC cleavage by affinity purified membrane derived caspase-3 from 697 cells. The conditions noted are these: read-out: KM value for the purified caspase; reactivated affinity purified membrane derived caspase-3.

Protein sequences, listed by entry. Tags and fused reporters are not part of them. Residues count along the entry.
UniProt P42574, 14-175 limits assumed: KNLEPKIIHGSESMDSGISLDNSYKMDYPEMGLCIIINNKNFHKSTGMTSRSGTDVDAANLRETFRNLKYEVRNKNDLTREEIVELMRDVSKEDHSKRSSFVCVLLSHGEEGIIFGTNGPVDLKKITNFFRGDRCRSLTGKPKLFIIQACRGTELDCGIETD
UniProt P42574, 176-277 limits assumed: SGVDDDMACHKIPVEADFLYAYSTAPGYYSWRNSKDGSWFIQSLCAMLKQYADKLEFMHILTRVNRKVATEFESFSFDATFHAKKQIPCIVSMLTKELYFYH

This note sets out measurements from US6762045B2, “Membrane derived caspase-3, compositions comprising the same and methods of use therefor” (Idun Pharmaceuticals, Inc., priority 2000, dated 2004).

The structures appear in SMILES notation.

One may read the Km as the substrate concentration at which the rate is half of its maximum.

On to `CC(=O)N[C@@H](CC(=O)O)C(=O)N[C@@H](CCC(=O)O)C(=O)N[C@H](C(=O)N[C@@H](CC(=O)O)C(=O)Nc1ccc2c(C)cc(=O)oc2c1)C(C)C`, for which the Km in assay [1] and in assay [2] was 10 µM each time.
